The text below walks through data of PubChem BioAssay AID1963576 (National Center for Advancing Translational Sciences (NCATS), 2024).

This is a selection; strong and weak results do not stand in their true shares. Results filed as inconclusive are left out. Activity calls are given as the source filed them. Calls follow the shape of the dose curve; as a rule, active = well fitted inhibition curve with a large enough effect; inconclusive = small, poorly fitted or top-dose-only effect; inactive = no such curve, though single readings can be large or run the other way.

This test can be described thus: Primary qHTS assay for Inhibitors of ovarian cancer metastasis using an organotypic tumor microenvironment (TME) model.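 Also: plate controls were DMSO wells for no effect and tomatine positive control wells for full effect; nearly all actives have a fitted effect of over 65% in size.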 Conditions: SKOV3ip1-GFP adhesion/invasion on 3D omental model, fluorescence; at 45.8 µM (top of the series). The text has this:
PI: Ernst Lengyel MD., Ph.D. Department of Obstetrics and Gynecology, Section of Gynecologic Oncology University of Chicago Medicine, Chicago, Illinois. The tumor microenvironment (TME) is a key determinant of metastatic efficiency. We performed a quantitative high-throughput screen (qHTS) of diverse medicinal chemistry tractable scaffolds (44,420 compounds) and pharmacologically active small molecules (386 compounds) using a layered organotypic, robust assay representing the ovarian cancer metastatic TME. This 3D model contains primary human mesothelial cells, fibroblasts, and extracellular matrix, to which fluorescently labeled ovarian cancer cells are added. Initially, 100 compounds inhibiting ovarian cancer adhesion/invasion to the 3D model in a dose-dependent manner were identified. […]
PROTOCOL TABLE (as described by Inglese J, Shamu CE and Guy RK. 2007) SEQUENCE No. (e.g., 1, 2, 3, etc.); […] […] 11; Detection; Fluorescence, excitation filter 488 nm, emission filter 509 nm. […] The number of GFP-labeled cells analyzed using a fluorescent cytometer TTP LabTech Acumen eX3 using 488 nm excitation filter and 509 nm emission filter. […] Yasgar A, Shinn P, Jadhav A, Auld DS, Michael S, Zheng W, Austin CP, Inglese J and Simeonov A, Compound Management for Quantitative High-Throughput Screening. […]
On to `CCn1c(=O)n([C@@H]2CCN(CC3CCCCCCC3)C[C@@H]2CO)c2ccccc21`, for which the activity change, negative = inhibition is inactive: -19.7%.
